Tested on: CoV-2 infection
Settings: human, in vivo

N[C@@H](CC(=O)N1CCn2c(nnc2C(F)(F)F)C1)Cc1cc(F)c(F)cc1F [sitagliptin]
development of CoV-2 infection after exposure: does not develop a CoV-2 infection
